# AlphaSeq binding of Ab-14 heavy chain variants to a spike HR2 peptide

Target peptide (SARS-CoV-2 spike, HR2 region): PDVDLGDISGINAS

Parent scFv Ab-14: VH joined to VL by the linker GGGGSGGGGSGGGGS. Changes lie in the heavy chain CDRs alone.
VH: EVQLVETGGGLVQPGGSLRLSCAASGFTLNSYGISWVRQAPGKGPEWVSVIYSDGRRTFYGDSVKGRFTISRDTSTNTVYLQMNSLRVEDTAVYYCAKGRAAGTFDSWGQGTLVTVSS
VL: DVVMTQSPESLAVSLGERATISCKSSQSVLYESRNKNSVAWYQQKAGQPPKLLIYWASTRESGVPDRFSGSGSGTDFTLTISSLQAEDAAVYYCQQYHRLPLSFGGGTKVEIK

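AAYL49 was designed without a model: most single CDR substitutions and a random sample of double and triple ones. AlphaSeq pools MATa yeast showing the antibodies with MATalpha yeast showing the peptide. Mating (16 h, 30 °C) was followed by selection of diploids and sequencing of their barcodes. A regression on co-assayed BCL2-family reference pairs converts the normalised counts of each replicate to an apparent Kd. Mating was done three times.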

Variants are written as CDR1, CDR2 and CDR3 of the heavy chain (limits as in the source). Parent: GFTLNSYGIS, VIYSDGRRTFYGDSVK, GRAAGTFDS.
The Kd shown is the geometric mean over detected replicates; a lower Kd is a better binder.
An entry "nd" has no value in the source: the pair was not observed among the diploids in any replicate. This suggests poor binding but is not conclusive.
Parent in this assay: reference entry 4.4 nM, copy in this library 13 µM (one replicate of three).
Nonspecific signal, from three strains lacking the peptide, appeared in 15% of pairings of library AAYL49, centred on 11 µM (5% of these signals below 680 nM); values are not corrected for it.

For GFTLNSYGIS | VIHSDCRQTFYGDSVK | GRAAGTFDS, the assay gave 60 µM (1 of 3 replicates).
For GFTLNSYGIS | VIEPDGRRTFYGDSVK | GRAAGTHDS, the assay gave 7.9 µM (1 of 3 replicates).
For GFTLNSYGIS | VIYSDGRRTFYGVSVK | GRAQGTFDS, the assay gave 3.1 µM (1 of 3 replicates).
For GFTMNSYGIS | VIYSDGRRTFYGDSVK | HRAAGVFDS, the assay gave nd (0 of 3 replicates).
For GFTLNSYGIS | VIYSDGRRTFYGASVK | GVAAGTFDS, the assay gave 20 nM (3 of 3 replicates).
For GFMLNSYGIS | VIYSDGRRTFYGDSVK | GRAAGTFDF, the assay gave 7.6 µM (3 of 3 replicates).
For GFTLNSYGIS | CIYSDGRRTFGGDSVI | GRAAGTFDS, the assay gave nd (0 of 3 replicates).
For GFTLNSYGCS | VIYDDGKRTFYGDSVK | GRAAGTFDS, the assay gave 200 µM (1 of 3 replicates).
For GFTLNSYGYS | VIYSDGQRTFYGDSVK | GIAAGTFDS, the assay gave 7.6 µM (1 of 3 replicates).
For GFTLNSYGIS | VIYSDGRRTFYGDEAK | GRAAGTFDR, the assay gave 850 nM (3 of 3 replicates).
For GFTLNSYGIS | VIYSDGRRTFCGDMVW | GRAAGTFDS, the assay gave nd (0 of 3 replicates).
For GFFLNSYGIS | VIYSDGRRTFYGDYVK | GRAAYTFDS, the assay gave nd (0 of 3 replicates).
For GFTLNSYGIS | VIYEDGRRTFYGDWVK | YRAAGTFDS, the assay gave nd (0 of 3 replicates).
For DDTLNSYGIS | VIYSDGRRTEYGDSVK | GRAAGTFDS, the assay gave 110 nM (3 of 3 replicates).
For GFTLNSYGHS | VTYSDGRRTFYGDSVK | GRAAGTKDS, the assay gave 4.0 µM (1 of 3 replicates).
For GFTLNSYGIS | VIYSIGRRTFVGDSGK | GRAAGTFDS, the assay gave nd (0 of 3 replicates).
For GPTLNSYGIS | VIYSDGRRTSYGDSVH | GRAAGTFDS, the assay gave 730 nM (3 of 3 replicates).
For GFTLNSYGIS | VIYSDGRRTFYGDSVK | GRAAGGFDY, the assay gave 65 nM (3 of 3 replicates).
For GFELNSYGIS | VIYSDGRRTQYGDSVK | GRADGTFDS, the assay gave 220 nM (3 of 3 replicates).
For QFTLNSYGIS | VIYSDGRQTFYGDSVK | GRYAGTFDS, the assay gave nd (0 of 3 replicates).
For GFTLNSYGIS | VIYSDGRRTFYWDSVA | GRAAGTFDG, the assay gave 96 µM (2 of 3 replicates).
For GFTLNSYGIS | VIYSDGRRTFEGDSVK | GRYAGTFDS, the assay gave 270 nM (3 of 3 replicates).
For GFTGNSYGIS | VIYSDGRRTFQGDSVQ | GRAAGTFDS, the assay gave nd (0 of 3 replicates).

Further variants, results first:

Result nd (0 of 3 replicates), variant GVTLNSYGIS | VIYSDGRRTFYGDSVK | ARAAGTFDS.
Result nd (0 of 3 replicates), variant GFTLNSYGIS | VGYSDGRRTFYGCSVK | GRASGTFDS.
Result nd (0 of 3 replicates), variant GFTLNSYGIS | VIYSDGRRTFYGDSFI | GRAAGTMDS.
Result 11 µM (2 of 3 replicates), variant GFTLNSYGIS | DIYSDGRRTFYGDSVK | GRAWGTGDS.
Result 130 nM (3 of 3 replicates), variant GFTLNSEGIS | VIYSDGRRTFYGDAVK | GRAAGRFDS.
Result nd (0 of 3 replicates), variant GFTRNSYGIQ | VIYSDGRRTFKGDSVK | GRAAGTFDS.
Result 11 µM (1 of 3 replicates), variant GFTLNSYWIS | VIYSDGRRTFYGDSVI | GRAASTFDS.
Result nd (0 of 3 replicates), variant GFTLNSYGIS | VIYSDGRDTFYGDWVK | GRAAGTFDS.
Result 17 nM (3 of 3 replicates), variant GFNLNKYGIS | VIYSDGRRCFYGDSVK | GRAAGTFDS.
Result nd (0 of 3 replicates), variant VFTLNFYGIS | VQYSDGRRTFYGDSVK | GRAAGTFDS.
Result 1.2 µM (1 of 3 replicates), variant GRTLNSYGIS | VIYSDGRRTFYGTSVK | GRAAGTFTS.
Result 120 µM (1 of 3 replicates), variant GFTLNSYGGS | GIYSDGRRTFYGDRVK | GRAAGTFDS.
Result nd (0 of 3 replicates), variant GFTLNSYGIS | VIYSDMRRTFYGDSVK | GRAAKHFDS.
Result nd (0 of 3 replicates), variant GFTLNMYGIS | VIYSDIRRTFYGDSVK | GRAAGTKDS.
Result nd (0 of 3 replicates), variant GFTFNSYGIS | VIHSDGRRTFYWDSVK | GRAAGTFDS.
Result nd (0 of 3 replicates), variant KFTLNKYGIS | VIYSDGRRTFYGVSVK | GRAAGTFDS.
Result nd (0 of 3 replicates), variant GFTLNSYGIS | VIYSDGRRTFYGESVK | GRAAPTFDS.
Result 100 µM (1 of 3 replicates), variant GFTVNSYGIS | VIYSDGERTFYGDSVK | GRAAHTFDS.
Result nd (0 of 3 replicates), variant GFTLNSYGIS | VIYSDGRRTFYGDSVK | GRAFGTFKS.
Result nd (0 of 3 replicates), variant GFTLNSYGIS | VIYSRGRRTFYGDSVK | GRFAGTFDD.
Result 520 nM (3 of 3 replicates), variant GFTLNSYGIS | VIYSDGRRTFYGDSYK | GRAAQTFDA.
Result nd (0 of 3 replicates), variant GFTLNSYGIS | VIYSDGRNTFYGDSVK | GRAAGTHDS.
Result 71 nM (3 of 3 replicates), variant GFTLNSYGIS | VIYSDGARTFYDDSVL | GRAAGTFDS.
Result 48 µM (1 of 3 replicates), variant GFTLNSYMIS | VIYSDGRRTFYNDSVK | GRAAGTFDG.

Picked from the list: the 4 lowest averages where every replicate gave a value.

| CDR-H1 | CDR-H2 | CDR-H3 | apparent Kd | seen in |
|---|---|---|---|---|
| GFNLNKYGIS | VIYSDGRRCFYGDSVK | GRAAGTFDS | 17 nM | 3 of 3 |
| GFTLNSYGIS | VIYSDGRRTFYGASVK | GVAAGTFDS | 20 nM | 3 of 3 |
| GFTLNSYGIS | VIYSDGRRTFYGDSVK | GRAAGGFDY | 65 nM | 3 of 3 |
| GFTLNSYGIS | VIYSDGARTFYDDSVL | GRAAGTFDS | 71 nM | 3 of 3 |

Source: Engelhart et al. 2022 (doi:10.1038/s41597-022-01779-4), MIT Lincoln Laboratory and A-Alpha Bio; data file from the FLAb repository.